In US20060074073A1, “Therapeutic combinations comprising poly (ADP-ribose) polymerases inhibitor” (AGOURON PHARMACEUTICALS, INC., priority 2004, published 2006):

Test system: SW620 human colon carcinoma xenograft
Test: In vivo antitumor efficacy with temozolomide, SW620 xenograft
Settings: 10 mg/kg compound + 68 mg/kg temozolomide QD×5

SMILES: CNCc1ccc(-c2[nH]c3cc(F)cc4c3c2CCNC4=O)cc1
- toxicity: toxic
